Values of other authors in publication PMC10714751 (Microbiology Spectrum, 2023).
Starred links: 1 amine or outer side, 2 acyl side, 3 side chain; linkers in the order of their positions; H or OH if unused. Positions of bridges follow the written chain, without caps; N, C: chain ends. Non-standard residues stand in square brackets, D forms with d. Residues, ends and D or L forms follow the SMILES beside them. *: point of attachment. dAsp(3R-OH) = N[C@@H](C(=O)O)[C@@H](O)C(=O)O; Palmitoleoyl = CCCCCC/C=C\CCCCCCCC(=O)*; X1 = NC[C@H](O)[C@@H](N[*:1])C(=O)[*:2]; X2 = CCC(C)(O)[C@H](N[*:1])C(=O)[*:2]; d(aIle) = CC[C@H](C)[C@@H](N)C(=O)O; d(aThr) = C[C@@H](O)[C@@H](N)C(=O)O; Myristoyl = CCCCCCCCCCCCCC(=O)*; dOrn = NCCC[C@@H](N)C(=O)O; hSer = N[C@@H](CCO)C(=O)O

Tested on: clinical multidrug-resistant Acinetobacter strains
Settings: cited from earlier work

| SMILES | activity against all tested clinical multidrug-resistant Acinetobacter strains |
| --- | --- |
| CCCCCCCCCCCCCC(=O)N[C@H](CCCN)C(=O)N[C@@H](CO)C(=O)N[C@H](C(=O)N[C@@H](C(=O)N[C@@H](C(=O)N[C@H]1C(=O)NCC(=O)N[C@@H](C(C)(O)CC)C(=O)N[C@H]([C@@H](C)CC)C(=O)N[C@@H](CCO)C(=O)N[C@@H](C)C(=O)N[C@H]([C@@H](C)CC)C(=O)N[C@@H](CCC(=O)O)C(=O)O[C@@H]1C)[C@@H](O)CN)[C@@H](O)C(=O)O)C(C)C (stereo partly drawn) [Turnercyclamycin A] (Myristoyl-[dOrn]SV[dAsp(3R-OH)][X1][d(aThr)]G[X2][d(aIle)][hSer]A[d(aIle)]E; ester 6-C) | active |
| CCCCCC/C=C\CCCCCCCC(=O)N[C@H](CCCN)C(=O)N[C@@H](CO)C(=O)N[C@H](C(=O)N[C@@H](C(=O)N[C@@H](C(=O)N[C@H]1C(=O)NCC(=O)N[C@@H](C(C)(O)CC)C(=O)N[C@H]([C@@H](C)CC)C(=O)N[C@@H](CCO)C(=O)N[C@@H](C)C(=O)N[C@H]([C@@H](C)CC)C(=O)N[C@@H](CCC(=O)O)C(=O)O[C@@H]1C)[C@@H](O)CN)[C@@H](O)C(=O)O)C(C)C (stereo partly drawn) [Turnercyclamycin B] (Palmitoleoyl-[dOrn]SV[dAsp(3R-OH)][X1][d(aThr)]G[X2][d(aIle)][hSer]A[d(aIle)]E; ester 6-C) | active |
